Assay results from patent US11149040B2, “Fused triazole agonists of the APJ receptor” (AMGEN INC., priority 2017, dated 2021).

Amino acid sequences for entries named in this document (tags omitted). A change or cut given only in a name is not applied to a line headed by its entry.
UniProt P35414: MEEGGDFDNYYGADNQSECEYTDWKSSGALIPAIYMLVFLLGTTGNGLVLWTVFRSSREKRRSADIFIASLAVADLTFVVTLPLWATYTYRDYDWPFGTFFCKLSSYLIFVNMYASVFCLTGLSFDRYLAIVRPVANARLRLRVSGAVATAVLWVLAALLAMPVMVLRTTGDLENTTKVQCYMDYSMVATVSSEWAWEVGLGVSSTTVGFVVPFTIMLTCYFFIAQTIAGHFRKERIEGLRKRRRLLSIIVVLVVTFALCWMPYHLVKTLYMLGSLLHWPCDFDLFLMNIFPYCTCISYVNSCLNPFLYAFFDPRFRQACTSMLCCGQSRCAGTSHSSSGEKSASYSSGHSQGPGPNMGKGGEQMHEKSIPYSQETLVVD

Biological target: human APJ-AT1R (angiotensin Type 1) double stable CHO cell line (Homo sapiens (Human), UniProt P30556+P35414)
Conditions: added to APJ small molecule agonists in the presence of AngII

## CCCCc1nc(Cl)c(CO)n1Cc1ccc(-c2ccccc2-c2nn[nH]n2)cc1 [losartan]
  effect of AT1R blockade on cooperativity and APJ receptor efficacy: relieved this cooperativity and resulted in synergistic effects of enhancing the efficacy of the APJ receptor
